Tests used:
[1] = target: GIRK1/2 (Homo sapiens, UniProt P48051+P48549); test: Thallium flux assay protocol (Examples 2 and 3), GIRK1/GIRK2 HEK-293 cells; format: cell-based; conditions: read-out: GIRK1/2 EC50; Table 4, analogs 8; triplicate determinations
[2] = target: GIRK1/4 (Homo sapiens, UniProt P48544+P48549); test: Thallium flux assay protocol (Examples 2 and 3), GIRK1/GIRK4 HEK-293 cells; format: cell-based
Procedure: Compounds were dissolved in DMSO, transferred to 384-well polypropylene plates, and serially diluted in DMSO using and Agilent Bravo (11-points, threefold dilutions). Serially diluted plates were dispensed to daughter plates using a Labcyte Echo555 and diluted to twofold over their target assay concentration with 20 mM HEPES-buffered (pH 7.4) Hanks Balanced Salt Solution (HBSS), hereafter referred to as Assay Buffer, using a Thermo Fisher Combi. Twenty-thousand HEK-293 cells/well stably transfected with the ion channel subunits of interest (e.g., GIRK1/GIRK2, GIRK1/GIRK4) were plated into 384-well, black-walled, clear-bottom, amine-coated coated plates in 20 LL/well alpha-minimal essential medium (MEM) supplemented with 10% (v/v) fetal bovine serum and incubated overnight in a 5% CO2 incubator at 37° C. Cell culture medium was removed from cell plates and replaced with 20 LL/well Assay Buffer. […] Fluorescence data were collected at 1 Hz. Data analysis: Waveform signals (fluorescence intensity vs time normalized by dividing each fluorescence value (F) by the initial fluorescence value for each trace (F0)) were reduced to single values by subtracting the average normalized waveform from vehicle control wells from each wave on the plate followed by obtaining the slope of the change in fluorescence immediately after the addition of the thallium stimulus. […]

Sequences of proteins named here, by UniProt entry; tags and fusion partners are left off.
UniProt P48051, whole entry: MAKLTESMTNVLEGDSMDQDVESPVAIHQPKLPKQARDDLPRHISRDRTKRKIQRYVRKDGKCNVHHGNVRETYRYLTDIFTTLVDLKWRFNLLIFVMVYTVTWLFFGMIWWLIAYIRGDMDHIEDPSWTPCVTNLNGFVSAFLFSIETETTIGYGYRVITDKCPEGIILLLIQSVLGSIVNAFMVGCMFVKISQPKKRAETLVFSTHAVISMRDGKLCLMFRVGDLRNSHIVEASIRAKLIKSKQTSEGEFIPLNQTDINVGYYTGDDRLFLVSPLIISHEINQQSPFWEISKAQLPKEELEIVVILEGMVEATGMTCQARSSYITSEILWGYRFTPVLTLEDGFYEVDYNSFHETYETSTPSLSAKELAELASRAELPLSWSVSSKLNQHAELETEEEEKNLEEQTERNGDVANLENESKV
UniProt P48549, whole entry: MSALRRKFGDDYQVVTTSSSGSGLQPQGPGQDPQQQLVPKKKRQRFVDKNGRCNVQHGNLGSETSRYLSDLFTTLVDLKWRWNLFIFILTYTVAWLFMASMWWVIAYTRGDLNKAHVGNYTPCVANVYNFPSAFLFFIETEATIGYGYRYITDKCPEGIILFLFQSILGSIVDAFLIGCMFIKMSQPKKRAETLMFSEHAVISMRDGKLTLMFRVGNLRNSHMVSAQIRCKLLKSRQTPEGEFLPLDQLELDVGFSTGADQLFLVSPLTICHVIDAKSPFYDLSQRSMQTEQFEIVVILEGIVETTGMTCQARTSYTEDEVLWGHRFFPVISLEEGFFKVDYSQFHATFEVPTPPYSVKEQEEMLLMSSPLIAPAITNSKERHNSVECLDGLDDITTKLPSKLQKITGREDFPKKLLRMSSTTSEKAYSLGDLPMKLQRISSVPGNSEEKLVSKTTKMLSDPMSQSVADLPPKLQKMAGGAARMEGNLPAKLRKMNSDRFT
UniProt P48544, whole entry: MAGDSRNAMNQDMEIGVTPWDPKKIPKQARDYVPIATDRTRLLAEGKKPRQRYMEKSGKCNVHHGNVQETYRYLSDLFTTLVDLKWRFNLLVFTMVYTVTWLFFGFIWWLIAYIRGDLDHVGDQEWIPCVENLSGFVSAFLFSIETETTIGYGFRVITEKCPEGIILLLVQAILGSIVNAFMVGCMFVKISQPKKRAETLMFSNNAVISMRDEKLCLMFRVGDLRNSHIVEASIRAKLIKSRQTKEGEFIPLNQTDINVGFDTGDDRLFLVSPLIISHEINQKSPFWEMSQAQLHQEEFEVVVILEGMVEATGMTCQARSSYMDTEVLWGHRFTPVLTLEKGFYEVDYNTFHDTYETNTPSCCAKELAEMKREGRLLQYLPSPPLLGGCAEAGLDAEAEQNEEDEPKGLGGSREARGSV

EC50 [1]: > 10 µM | activity at GIRK1/4 (in words) [2]: selective, partial GIRK1/4 activators | GIRK1/4 Efficacy ([2]; Table 4, standardized to efficacy of 2 = 100%): 20%
SMILES: O=C(Cc1ccccc1Cl)Nc1ccc(C(F)(F)F)cc1
